System: children undergoing tonsillectomy
Assay: Respiratory depression and prolonged PACU stay due to RD by ABCB1 genotype (Example 7)
Conditions: Whites, ABCB1 rs9282564 AA, N=171

CN1CC[C@]23c4c5ccc(O)c4O[C@H]2[C@@H](O)C=C[C@H]3[C@H]1C5 [morphine]
RD %: 16%

From US10878939B2, “Methods and compositions for personalized pain management” (Children's Hospital Medical Center, priority 2014, dated 2020)
